Values of other authors as cited in PMC10406941 (Scientific Reports, 2023).

By UniProt entry, the sequences of proteins in these tests, tags left out. Where a name states a change or a piece, a line headed by the entry shows the natural chain unless it says otherwise.
UniProt Q5U3Y7, whole entry: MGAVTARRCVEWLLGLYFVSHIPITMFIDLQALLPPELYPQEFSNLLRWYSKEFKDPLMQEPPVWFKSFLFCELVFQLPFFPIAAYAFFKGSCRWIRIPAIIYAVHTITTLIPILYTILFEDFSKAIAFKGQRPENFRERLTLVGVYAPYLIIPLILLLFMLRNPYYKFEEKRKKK
UniProt Q60492, whole entry: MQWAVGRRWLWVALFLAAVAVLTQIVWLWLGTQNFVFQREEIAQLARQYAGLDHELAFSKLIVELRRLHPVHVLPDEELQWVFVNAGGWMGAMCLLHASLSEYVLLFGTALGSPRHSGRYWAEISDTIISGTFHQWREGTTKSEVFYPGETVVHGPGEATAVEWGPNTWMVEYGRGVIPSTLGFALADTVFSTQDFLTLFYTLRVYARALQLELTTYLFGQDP

Tests used:
S2R = S2R (Rattus norvegicus, UniProt Q5U3Y7); details: read-out: Ki nM S2R, [3H]-DTG, rat liver, masking with (+)-Pentazocine, cited from earlier work
S1R = S1R (Cavia porcellus, UniProt Q60492); details: read-out: Ki nM S1R, [3H]-(+)-Pentazocine, guinea pig brain, cited from earlier work

SMILES | Ki (S2R; Table 3) [nM] | Ki (S1R; Table 2) [nM] | Ki (S2R; Table 2) [nM] | Ki (S1R; Table 3) [nM]
C1CCC(CCCN2CCN(C3CCCCC3)CC2)CC1 | 4.7 | – | – | –
COc1cc2c(cc1OC)CN(CCCN1CCCc3c(OC)cccc31)CC2 | – | 3990 | 1.42 | –
O=C1COc2cccnc2N1CCCN1CCN(C2CCCCC2)CC1 | 16 | – | – | 12
COc1ccc([C@H]2CC[C@@H](CCCN3CCN(C4CCCCC4)CC3)CC2)cc1 (relative stereo) | 1.59 | – | – | 0.81
COc1ccc([C@H]2CC[C@H](CCCN3CCN(C4CCCCC4)CC3)CC2)cc1 (relative stereo) | 1.21 | – | – | 0.23
COc1cccc(OC)c1[C@H]1CC[C@@H](CCCN2CCN(C3CCCCC3)CC2)CC1 (relative stereo) | 7.92 | – | – | 0.26
COc1cccc(OC)c1[C@H]1CC[C@H](CCCN2CCN(C3CCCCC3)CC2)CC1 (relative stereo) | 0.21 | – | – | 0.32
c1ccc([C@H]2CC[C@@H](CCCN3CCN(C4CCCCC4)CC3)CC2)cc1 (relative stereo) | 3.66 | – | – | 0.042
c1ccc([C@H]2CC[C@H](CCCN3CCN(C4CCCCC4)CC3)CC2)cc1 (relative stereo) | 4.77 | – | – | 0.045

Like-named read-outs stand apart in the source and are kept apart here.
